Reference: BindingDB's records for doi:10.1016/s0002-9343(98)00091-6 (Dallas Department of Veterans Affairs Medical Center, 1998)

Protein sequences, listed by entry. Tags and fused reporters are not part of them.
UniProt P23219, whole entry: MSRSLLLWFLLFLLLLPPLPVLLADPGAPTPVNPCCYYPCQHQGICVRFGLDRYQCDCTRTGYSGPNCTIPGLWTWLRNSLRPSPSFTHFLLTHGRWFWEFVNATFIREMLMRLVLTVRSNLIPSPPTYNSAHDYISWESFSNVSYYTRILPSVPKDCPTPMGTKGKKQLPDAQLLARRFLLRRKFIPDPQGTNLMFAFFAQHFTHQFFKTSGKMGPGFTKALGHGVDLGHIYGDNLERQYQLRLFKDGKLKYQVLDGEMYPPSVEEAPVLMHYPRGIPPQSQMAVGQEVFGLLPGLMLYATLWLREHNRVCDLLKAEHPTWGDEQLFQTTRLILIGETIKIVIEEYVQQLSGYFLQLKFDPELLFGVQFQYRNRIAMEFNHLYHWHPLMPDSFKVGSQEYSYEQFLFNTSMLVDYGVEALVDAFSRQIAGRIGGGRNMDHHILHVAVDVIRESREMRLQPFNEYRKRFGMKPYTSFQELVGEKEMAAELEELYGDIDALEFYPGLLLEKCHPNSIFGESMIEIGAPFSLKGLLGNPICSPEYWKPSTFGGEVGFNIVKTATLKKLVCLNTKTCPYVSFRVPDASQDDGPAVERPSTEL

Biological target: Prostaglandin G/H synthase 1 (Homo sapiens, UniProt P23219)

Row | IC50 | Structure (SMILES)
1 | 410 nM | CC(C(=O)O)c1ccc(-c2ccccc2)c(F)c1 (racemic) [2-(2-fluoro-[1,1'-biphenyl-4-yl])propanoic acid]
2 | 2680 nM | CN1C(C(=O)Nc2ccccn2)=C(O)c2ccccc2S1(=O)=O [NSC_4856]
